Assay results: US20130251783A1, “LIPOSOMES CONTAINING PERMEATION ENHANCERS FOR ORAL DRUG DELIVERY” (Universitat Heidelberg, priority 2011, published 2013)

Key:
[1] = room temperature; cited from earlier work
Caco-2 cells [2] = assay: Alamar Blue cytotoxicity assay; type: cell-based; details: free enhancer in KRB, 10 mM
Procedure: (§1) Caco-2 cells were grown in T-75 flasks in Dulbecco's modified Eagle's medium (DMEM) supplemented with 10% FBS, 1% non-essential amino acids, 1% pyruvate, 1% L-glutamine, 100 U/ml penicillin and 100 μg/ml streptomycin at 37° C. in an atmosphere with 5% CO2 and in equilibrium with distilled water. The medium was changed every other day, and the cells were subcultured at 80% confluency. Cells were used in the experiments described below.
(§2) Cytotoxicity of liposomes and bio-enhancer solutions was investigated using the Alamar Blue® assay (AbD Serotec, Oxford, UK) and by determination of the release of lactate dehydrogenase (LDH) with a test kit (Sigma-Aldrich, Taufkirchen, Germany). […] The formed NADH in turn reduces a tetrazolium salt to a red-coloured product which can be determined photometrically. […]
In terms of the Alamar Blue® assay, groups of eight wells were incubated with the solutions of the bio-enhancers in five concentrations (1 μM, 10 μM, 100 μM, 1 mM and 10 mM) and the liposomal formulations in three concentrations (0.5 mM, 5 mM and 50 mM total lipid) in KRB for 2, 4, and 8 h at 37° C. […] After 4 h at 37° C., the colour change of the dye was determined at an excitation wavelength of 530 nm and an emission wavelength of 590 nm in a Fluoroskan Ascent® plate reader. […] Cell viability was expressed as follows: […]

Caco-2 cells [3] = assay: LDH release cytotoxicity assay; type: cell-based; details: free enhancer in KRB, 10 mM, 8-h versus 2-h incubation
Procedure: as §1, §2
For the LDH release assay, cells were treated similar as described for the Alamar Blue® cytotoxicity assay with little changes. […] The reaction was stopped by the addition of 10 μl 1N HCl and subsequently, the colour change of the dye was measured by a Tecan microplate absorbance reader (Sunrise, Tecan, Grodig, Austria) at a wavelength of 490 nm and a reference wavelength of 700 nm. To eliminate the influence of the liposomes and the bio-enhancers on the absorbance, a blank was measured of the formulations with a concentration equal to the final assay concentration. […]

rats = details: cited from earlier work
Caco-2 cells [4] = details: cited from earlier work

Substance | CMC [1] | Effect on cell viability (Caco-2 cells [2]; 2-h incubation) | Cell viability (Caco-2 cells [2]; 8-h incubation) | Cell viability by LDH release (confirmation of the Alamar Blue finding) (Caco-2 cells [3]) | LD50 (rats) | Concentration at which toxicity starts in LDH release assay (Caco-2 cells [4])
D-α-tocopheryl polyethylene glycol 400 succinate [TPGS 400] | around 1.5 mM |  |  |  |  | 
D-α-tocopheryl polyethylene glycol 1000 succinate [TPGS 1000] | around 0.02 mM | no effect | to a minimum | confirmed | > 7000 mg/kg | 625 μm
